Experimental data taken from PubChem BioAssay AID686979 (National Center for Advancing Translational Sciences (NCATS), 2013).
The list shows a part of the results, in another mix than the full data. Inconclusive results are not listed. Some salts or complexes appear as unconnected parts, following the source record. Activity calls are given as the source filed them. Calls follow the shape of the dose curve; as a rule, active = well fitted inhibition curve with a large enough effect; inconclusive = small, poorly fitted or top-dose-only effect; inactive = flat fitted curve, though single readings scatter.

Assay: qHTS for Inhibitors of human tyrosyl-DNA phosphodiesterase 1 (TDP1): qHTS in cells in presence of CPT; also: nearly all actives have a fitted effect of over 55% in size
Conditions: chicken DT40 Tdp1-/-;hTDP1 cells + 20 nM CPT, ATP luminescence, 48 h; series mostly up to 46.2 µM; activity change, negative = growth inhibition: at the top concentration
% is scaled to controls: 0 for no effect and ±100 for the full control effect; potency is read from the fitted curve at half-maximal effect.

| SMILES | activity change, negative = growth inhibition | Potency |
| --- | --- | --- |
| CN(C)C1(CNC(=O)c2cccc(C#N)c2)CCCCC1 | inactive: 10.8% | – |
| c1ccc(CN2CCC(Nc3ccccc3)CC2)cc1 | inactive: 1.38% | – |
| CCCN1CCC(Nc2cc(OC)cc(OC)c2)CC1 | inactive: -2.24% | – |
| N#Cc1ccc(C(=O)NCC2(N3CCCCC3)CCCCC2)cc1 | inactive: -5.17% | – |
| CCOC(=O)C(CC)C1=NC(C)(C)Cc2ccccc21.O=[N+]([O-])c1cc([N+](=O)[O-])c(O)c([N+](=O)[O-])c1 (stereo not given) | inactive: -13.5% | – |
| CCOC(=O)N1CCC(Nc2ccc(C)cc2)CC1 | inactive: -14.2% | – |
| N/C(=N\O)c1c(N)no[n+]1[O-] | inactive: -15.3% | – |
| O=C(O)c1cccc(Nc2c([N+](=O)[O-])cc([N+](=O)[O-])cc2[N+](=O)[O-])c1 | inactive: -3.6% | – |
| COc1ccc(C(=O)NCC2(N3CCOCC3)CCCCC2)cc1OC | inactive: -25.9% | – |
| COc1cc(OC)cc(C(=O)NCC2(N3CCOCC3)CCCCC2)c1 | inactive: -1.42% | – |
| CCC(CO)(C(=O)OC1CN2CCC1CC2)c1ccccc1 (stereo not given) | inactive: -14.3% | – |
| CN1CCC(Nc2ccc(Cl)cc2)CC1 | inactive: 6.41% | – |
| CN1CCC(Nc2ccc(F)c(Cl)c2)CC1 | inactive: -5.63% | – |
| CC(C)(C)OC(=O)N1CCC(Nc2ccccc2)CC1 | inactive: -18.8% | – |
| O=C(O)C1(Nc2ccccc2)CCN(Cc2ccccc2)CC1 | inactive: 1.43% | – |
| CCCOc1ccc(C(=O)NCC2(N(C)C)CCCCC2)cc1 | inactive: -2.27% | – |
| Cc1ccccc1NC1(C#N)CCN(Cc2ccccc2)CC1 | inactive: 13.2% | – |
| CCN1CCC(Nc2cccc(F)c2)CC1 | inactive: -6.97% | – |
| Cc1ccccc1C(=O)NCC1(N(C)C)CCCCC1 | inactive: 0.0839% | – |
| O=C(NCC1(N2CCCCC2)CCCCC1)c1ccco1 | inactive: -1.35% | – |
| CN(C)c1ccc(C(=O)NCC2(N3CCCCC3)CCCCC2)cc1 | inactive: 4.23% | – |
| CN(C)C1(CNC(=O)c2ccc(C(C)(C)C)cc2)CCCCC1 | – | active: 18.4 µM |

| SMILES | activity change, negative = growth inhibition | Potency |
| --- | --- | --- |
| COc1cc(OC)cc(C(=O)NCC2(N3CCCCC3)CCCCC2)c1 | inactive: -2.22% | – |
| Cc1ccc(C(=O)NCC2(N3CCCCC3)CCCCC2)o1 | inactive: 10.9% | – |
| Fc1ccccc1NC1CCN(Cc2ccccc2)CC1 | inactive: 10.1% | – |
| Cc1ccc(NC2(C#N)CCN(Cc3ccccc3)CC2)cc1 | inactive: 11.8% | – |
| CCOC(=O)N1CCC(Nc2cccc(C)c2)CC1 | inactive: -9.35% | – |
| COc1cc(C(=O)NCC2(N(C)C)CCCCC2)ccc1OC(F)F | inactive: -13.2% | – |
| O=P1(N(CCCl)CCCl)SCCCS1 | inactive: 5.92% | – |
| O=C(NCC1(N2CCCCC2)CCCCC1)c1ccc(F)cc1 | inactive: -8.41% | – |
| CCOC(=O)N1CCC(Nc2ccc(F)cc2)CC1 | inactive: -3.63% | – |
| COc1ccc(NC2CCN(CCc3ccccc3)CC2)c(OC)c1 | inactive: -15.5% | – |
| O=C(NCC1(N2CCCCC2)CCCCC1)c1ccc(Cl)nc1 | inactive: 2% | – |
| O=C(NCC1(N2CCCCC2)CCCCC1)c1ccc(Cl)s1 | inactive: -26.8% | – |
| N#CC1(Nc2ccccc2)CCN(Cc2ccccc2)CC1 | inactive: 0.653% | – |
| O=C1C(O)=C([N+](=O)[O-])C(=O)C(O)=C1[N+](=O)[O-] | inactive: -2.71% | – |
| CCOC(=O)N1CCC(Nc2ccc(OC)cc2)CC1 | inactive: -14% | – |
| COc1ccc(C(=O)NCC2(N3CCCCC3)CCCCC2)cc1 | inactive: -23.8% | – |
| CC(C)(C)OC(=O)N1CCC(N(C(=O)c2ccccc2)c2ccc(F)cc2)CC1 | inactive: -1.24% | – |
| CCC(c1nnnn1C1CCCC1)N1CCC(n2c(=O)[nH]c3ccccc32)CC1 (stereo not given) | inactive: -27.6% | – |
| O=C(NCC1(N2CCCCC2)CCCCC1)c1ccc(=O)[nH]c1 | inactive: -3.26% | – |
| O=C(NCC1(N2CCCCC2)CCCCC1)c1cccs1 | inactive: -0.62% | – |
| Cc1cccc(NC2(C#N)CCN(Cc3ccccc3)CC2)c1 | inactive: 4.45% | – |
| O=C(OC1CN2CCC1CC2)c1ccc([N+](=O)[O-])cc1 (stereo not given) | inactive: -3.58% | – |

| SMILES | activity change, negative = growth inhibition | Potency |
| --- | --- | --- |
| CN1CCC(Nc2cccc(F)c2)CC1 | inactive: 4.63% | – |
| O=C(NCC1(N2CCCCC2)CCCCC1)c1cncc(Br)c1 | inactive: -26.2% | – |
| COc1ccc2c(c1O)-c1c(O)c(OC)cc3c1[C@H](C2)[N+](C)(C)CC3.O=[N+]([O-])c1cc([N+](=O)[O-])c([O-])c([N+](=O)[O-])c1[O-] | inactive: 7.08% | – |
| CCCCOc1ccccc1C(=O)NCC1(N2CCOCC2)CCCCC1 | – | active: 16.4 µM |
| Cc1ccc(C(=O)NCC2(N(C)C)CCCCC2)o1 | inactive: -8.88% | – |
| CCCOc1ccc(C(=O)NCC2(N(C)C)CCCCC2)cc1OC | inactive: -5.39% | – |
| CN(C)c1cccc(C(=O)NCC2(N3CCCCC3)CCCCC2)c1 | inactive: -17.9% | – |
| COc1cc(OC)c(C(=O)NCC2(N(C)C)CCCCC2)cc1OC | inactive: -3.99% | – |
| CCN(CC)CCCNc1ccccc1[N+](=O)[O-].O=[N+]([O-])c1cc([N+](=O)[O-])c(O)c([N+](=O)[O-])c1 | inactive: -2.99% | – |
| O=C(NCC1(N2CCOCC2)CCCCC1)c1cc(F)c(F)cc1Cl | inactive: -17.3% | – |
| O=C(NCC1(N2CCCCC2)CCCCC1)c1cccc(C(F)(F)F)c1 | inactive: -15% | – |
| CCCOc1cccc(C(=O)NCC2(N3CCOCC3)CCCCC2)c1 | inactive: -29.9% | – |
| O=C(NCC1(N2CCOCC2)CCCCC1)c1cc(=O)[nH]c2ccccc12 | inactive: -19.9% | – |
| COc1cc(C(=O)NCC2(N3CCCCC3)CCCCC2)ccc1OC(F)F | inactive: -14% | – |
| COc1ccc(NC2CCN(C(=O)OC(C)(C)C)CC2)cc1 | inactive: -7.46% | – |
| CN1CCN(CCOC(=O)C(O)(c2ccccc2)c2ccccc2)CC1 | inactive: -0.458% | – |
| O=C(NCC1(N2CCCCC2)CCCCC1)c1ccc(OC(F)F)cc1 | inactive: 1.7% | – |
| CCN1CCC(Nc2ccc(Cl)cc2)CC1 | inactive: -20.1% | – |
| N#CC1(Nc2ccccc2)CCN(CCc2ccccc2)CC1 | inactive: -4.44% | – |
| O=C(NCC1(N2CCCCC2)CCCCC1)c1cccc([N+](=O)[O-])c1 | inactive: -16.7% | – |
| CSc1ccc(C(=O)NCC2(N3CCOCC3)CCCCC2)cc1 | inactive: -6.36% | – |
